Results taken from ChEMBL document CHEMBL5614419, “Discovery of novel BCL6-Targeting PROTACs with effective antitumor activities against DLBCL in vitro and in vivo” (Eur J Med Chem, 2024).

What was measured:
Assay type in all cases: functional, cell-based
Conditions in all cases: time 6.0 day
DOHH-2 = assay: Antiproliferative activity against BCL6-dependent human DOHH-2 cells assessed as inhibition in cell growth measured after 6 days by MTS assay
SUD4 = assay: Antiproliferative activity against BCL6-dependent human SU-DHL-4 cells assessed as inhibition in cell growth measured after 6 days by MTT assay
OCI-Ly1 = assay: Antiproliferative activity against BCL6-dependent human OCI-Ly1 cells assessed as inhibition in cell growth measured after 6 days by MTT assay
SU-DHL-6 = assay: Antiproliferative activity against BCL6-dependent human SU-DHL-6 cells assessed as inhibition in cell growth measured after 6 days by MTT assay

Measured: Activity

COc1cc(Nc2nc(N3CCN(CCOCCNc4cccc5c4C(=O)N(C4CCC(=O)NC4=O)C5=O)CC3)ncc2F)ccc1NC(=O)c1ccc(C2=CCCC2)s1 (centres undefined)
active: DOHH-2 = Dose-Dependent Effect | SUD4 = Dose-Dependent Effect | OCI-Ly1 = Dose-Dependent Effect | SU-DHL-6 = Dose-Dependent Effect
